The text below walks through data of ChEMBL document CHEMBL4138209, “Inhibitory effects and structural insights for a novel series of coumarin-based compounds that selectively target human CA IX and CA XII carbonic anhydrases” (Eur J Med Chem, 2018).

For one assay, the target named is Carbonic anhydrase 2 (Homo sapiens, UniProt P00918). The experiment in a line: Inhibition of human carbonic anhydrase 2 incubated for 15 mins prior to testing by stopped-flow CO2 hydration assay.
The next assay addresses Carbonic anhydrase 9 (Homo sapiens, UniProt Q16790). The experiment in a line: Inhibition of human carbonic anhydrase 9 incubated for 15 mins prior to testing by stopped-flow CO2 hydration assay.

Structures are written as SMILES.

What is called Ki is the dissociation constant of the complex between target and ligand, obtained from inhibition or displacement. A low value points to higher affinity. `O=c1ccc2ccc(O)cc2o1` [UMBELLIFERONE]: the Ki on Carbonic anhydrase 2 was above 10000 nM; at Carbonic anhydrase 9, 24.9 nM.
